# Ab-14 light chain CDR variants: yeast mating affinities

From the AlphaSeq antibody data of Li et al. 2023 (doi:10.1038/s41467-023-39022-2), copy in the FLAb collection.

All variants were tested on one target, the spike HR2 peptide PDVDLGDISGINAS (SARS-CoV-2).

Ab-14 is the parent antibody, in scFv form: VH, then a 15-residue (Gly4Ser)3 linker, then VL. The heavy chain is unchanged in all variants.
VH: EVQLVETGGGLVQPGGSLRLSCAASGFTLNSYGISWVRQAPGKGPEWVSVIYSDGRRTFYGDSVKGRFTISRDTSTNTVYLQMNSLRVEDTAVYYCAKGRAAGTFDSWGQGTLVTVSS
VL: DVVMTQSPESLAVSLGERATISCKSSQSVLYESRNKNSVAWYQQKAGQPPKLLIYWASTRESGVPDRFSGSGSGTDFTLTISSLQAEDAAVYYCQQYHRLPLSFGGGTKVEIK

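Phage display of a naive human antibody library on the peptide gave the parent. This is the validation round: designs drawn from the data on random variants, tested in the same kind of assay. Several design methods are mixed in this list. AlphaSeq pools MATa yeast showing the antibodies with MATalpha yeast showing the peptide. Pairs that bind mate more often; barcode pairs of the diploids are counted by sequencing. Scores were corrected for input abundance and mapped to Kd with protein pairs of known affinity run in the same pool. The assay was run in six technical replicates.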

Variants are written as CDR1, CDR2 and CDR3 of the light chain (limits as in the source). Parent: KSSQSVLYESRNKNSVA, WASTRES, QQYHRLPLS. Numbers give log10(Kd / nM), so 0 is 1 nM and 3 is 1 µM. Smaller is tighter. An entry "nd" has no value in the source: the pair was not observed among the diploids in that replicate. This suggests poor binding but is not conclusive.

| # | CDR-L1 | CDR-L2 | CDR-L3 | replicates, log10 nM | empty controls |
|---|---|---|---|---|---|
| 1 | KSLQSVLYESRDKNSVA | QASTRED | QQYHRLPLS | 0.48 -0.04 0.09 -0.07 0.12 0.08 | 0 of 18 |
| 2 | KLRQSTLYESRNKNSVA | QASTRES | QQYHRLPLM | 0.73 0.81 0.39 0.66 0.42 1.18 | 2 of 18 (2.45) |
| 3 | SISVFQNMSTQGNNSIA | GAEQKVH | QQYMRLPLY | 1.25 0.26 0.48 0.12 0.43 0.48 | 0 of 18 |
| 4 | MLSQMWALGMKVKNSVA | QASLRFN | QQYDRLPLI | nd nd nd nd 1.20 nd | 1 of 18 (2.82) |
| 5 | KLSQVTHSEHKVKNSIA | EMVTREK | QQYDRLPLS | 0.69 0.45 0.46 0.61 0.73 0.77 | 2 of 18 (3.35) |
| 6 | KLSQSVLYESRNKNSVA | NGSTREV | QQYHRLPLS | -0.13 -0.33 -0.37 -0.46 -0.45 -0.24 | 1 of 18 (2.75) |
| 7 | KISFSVLYESRNKNSVA | GASTRNA | QQYHRLPLS | 1.15 0.85 0.83 0.74 1.03 1.02 | 3 of 18 (3.32) |
| 8 | KQSQSVLYESRNKNSVA | DASTRES | QQYHRLPLK | 0.78 0.15 -0.19 0.11 0.16 0.64 | 0 of 18 |
| 9 | RIDSVWEMLTNRAQNVA | NATTVIA | QQYMRLPLV | 0.47 0.14 -0.01 0.31 0.29 0.55 | 0 of 18 |
| 10 | KQSQEKMYESRNKNSVA | DASTRES | QQYHRLPLS | -0.27 -0.10 -0.45 -0.53 -0.45 -0.22 | 1 of 18 (2.11) |
| 11 | MLSGVLHMLGTKKNSIA | DLVMRAN | QQYQRLPLS | nd 0.99 0.50 nd 0.52 nd | 0 of 18 |
| 12 | KSSQSVLYESDNKNSVA | WASTREK | QQYHRLPLS | 0.81 1.35 0.49 0.95 1.02 0.91 | 1 of 18 (3.01) |
| 13 | MISQLFMYGSRAYNSVA | QASTRES | QQYDRLPLI | 3.52 1.98 0.89 1.21 2.08 2.70 | 1 of 18 (1.96) |
| 14 | KLGSMVLLEHGNTNSIA | QQSTREE | QQYDRLPLS | 0.13 -0.08 -0.04 -0.08 0.04 0.19 | 0 of 18 |
| 15 | MLSDLVKAGSRNTNSVA | DNSTRGS | QQYDRLPLS | 0.97 0.87 0.84 0.97 0.69 0.57 | 1 of 18 (1.93) |
| 16 | SISGFMKSLAAHSNSVA | DMTNREQ | QQYDRLPLS | 0.54 0.41 0.41 0.28 0.37 0.42 | 1 of 18 (1.88) |
| 17 | KLKYQADQYGGQWNNVA | HADIRAP | QQYMKLPLN | 0.14 -0.09 -0.06 0.06 -0.07 0.23 | 1 of 18 (4.35) |
| 18 | KLMDNPWVEDKYRNAIA | DIEEKAI | QFYSRLPLS | nd nd 1.87 nd 3.96 nd | 0 of 18 |
| 19 | KISQMSSIESITHNSVA | QTSTRES | QQYDRLPLS | 0.65 1.06 0.79 0.43 0.45 0.99 | 2 of 18 (2.90) |

The remaining entries, values ahead:

| # | replicates, log10 nM | empty controls | CDR-L1 | CDR-L2 | CDR-L3 |
|---|---|---|---|---|---|
| 20 | 2.13 2.97 nd 2.50 3.40 2.63 | 2 of 18 (1.73) | KSSQSLLYESRNQNSVA | GASTRES | QQYHRLPAS |
| 21 | 0.30 0.42 0.19 0.50 0.24 0.29 | 2 of 18 (2.57) | SLMQVGGYESNNHNSIA | DLRTRLS | QQYHRLPLS |
| 22 | 1.07 0.98 0.67 1.00 0.95 1.45 | 2 of 18 (3.41) | KSSQSGLYESPNKNSVA | RASTRES | QQYHHLPLS |
| 23 | -0.30 -0.36 -0.30 -0.50 -0.40 -0.12 | 0 of 18 | KLSQSVLYESRNKNSVA | EASTRES | QQYHRLPLS |
| 24 | nd nd nd nd 2.56 nd | 0 of 18 | KSKDSVLYESTNKNSVA | WASTRES | QQYHRLPLS |
| 25 | 1.36 1.63 2.60 1.69 1.91 1.77 | 0 of 18 | QLLMATLQGTYNRNSVA | HAETRND | QSYHRLPLS |
| 26 | 0.36 0.21 0.14 -0.02 0.02 0.35 | 1 of 18 (2.93) | KLYQMTGIESHAKNSLA | DANRRED | QQYDRLPLS |
| 27 | -0.03 -0.05 -0.15 -0.30 0.10 0.22 | 2 of 18 (3.00) | KLMQSVLYESRNKNSVA | NASKRES | QQYHRLPLS |
| 28 | 1.09 0.85 1.07 1.19 1.17 2.03 | 0 of 18 | NLSGMTAHESVKEKNIA | ERSTREQ | QQYNRLPLS |
| 29 | 2.40 2.76 1.17 1.29 1.95 1.62 | 0 of 18 | KSGQGVLYESRNKNSVA | RASTRES | QQYHRLPPS |
| 30 | -0.35 -0.33 -0.72 -0.83 -0.49 -0.49 | 0 of 18 | KSSQSWLYESRNKNSVA | NASTREQ | QQYHRLPLS |
| 31 | 0.80 0.41 0.70 0.34 0.42 0.33 | 1 of 18 (2.22) | KSSQFYLYESRNKNSVA | GASTRES | QQYHRLPLS |
| 32 | 0.21 0.08 -0.21 -0.20 -0.08 0.18 | 0 of 18 | KLSGSVMMLQRNDNSVA | DANTRES | QQYHRLPLS |
| 33 | 0.37 -0.04 0.65 0.47 0.30 0.85 | 0 of 18 | KLSMVTGHMSVSKNNVA | EMETREE | QQYDRLPLS |
| 34 | nd 1.26 2.53 1.25 1.87 nd | 2 of 18 (2.51) | KSPQSVLYESRNKNSVA | WASTRPS | QQYHRLPLS |
| 35 | 0.60 0.47 0.39 0.44 0.57 0.43 | 1 of 18 (2.35) | KLLQSVVYEGRNKNSVA | HASTRED | QQYHRLPLS |
| 36 | 0.67 0.78 1.06 0.37 0.86 0.69 | 2 of 18 (2.30) | KSSISSLYESRNTNSVA | EASTRES | QQYHRLPLS |
| 37 | 0.39 0.34 0.22 0.33 0.37 0.71 | 0 of 18 | KSSESFLYESRNKNSVA | EASTRES | QQYHRLPLS |
| 38 | nd nd nd nd nd nd | 0 of 18 | KSSQSVLYESRNHPSVA | WASTRYS | QCYHGLPLS |

Repeated from above, the 2 best binders with a signal in all replicates:

| CDR-L1 | CDR-L2 | CDR-L3 | replicates, log10 nM | empty controls |
|---|---|---|---|---|
| KSSQSWLYESRNKNSVA | NASTREQ | QQYHRLPLS | -0.35 -0.33 -0.72 -0.83 -0.49 -0.49 | 0 of 18 |
| KQSQEKMYESRNKNSVA | DASTRES | QQYHRLPLS | -0.27 -0.10 -0.45 -0.53 -0.45 -0.22 | 1 of 18 (2.11) |

The range of this assay differs from that of the first round, and the authors advise against merging the two. Of ten entries with the parent sequence, four were seen in most replicates (averages 0.34 to 2.37), three in one and three in none, so single entries are noisy. The authors' rule: three or more of the six replicates give a measured affinity, fewer mean a poor binder. Nonspecific signal, from three strains lacking the peptide, appeared in 4% of pairings of all light chain designs, centred on 2.64 (5% of these signals below 1.59); values are not corrected for it. Also given: how often the same scFv was detected with the empty control strains, with their mean in brackets.